Reference: patent US20070270428A1, “Use of Cyclooxygenase-2 Inhibitors for the Treatment of Depressive Disorders” (priority 2003, published 2007)

By UniProt entry, the sequences of proteins in these tests, tags left out. Residues count along the entry.
UniProt P23219, 24-599: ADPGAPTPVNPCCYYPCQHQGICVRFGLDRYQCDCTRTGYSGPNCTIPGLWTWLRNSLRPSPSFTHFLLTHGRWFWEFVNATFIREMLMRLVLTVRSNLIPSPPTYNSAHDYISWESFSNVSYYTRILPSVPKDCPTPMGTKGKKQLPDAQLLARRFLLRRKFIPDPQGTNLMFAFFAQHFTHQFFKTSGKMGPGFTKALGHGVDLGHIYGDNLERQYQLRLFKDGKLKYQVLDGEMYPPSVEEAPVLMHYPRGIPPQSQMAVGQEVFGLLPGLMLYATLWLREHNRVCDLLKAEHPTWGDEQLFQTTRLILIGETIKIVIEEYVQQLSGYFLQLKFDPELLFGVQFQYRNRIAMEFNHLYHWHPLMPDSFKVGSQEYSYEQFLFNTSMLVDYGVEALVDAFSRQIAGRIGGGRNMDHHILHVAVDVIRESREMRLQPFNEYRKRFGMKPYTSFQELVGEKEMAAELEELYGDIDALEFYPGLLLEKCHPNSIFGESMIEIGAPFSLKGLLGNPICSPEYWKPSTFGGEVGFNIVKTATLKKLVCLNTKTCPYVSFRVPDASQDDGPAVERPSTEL

Target: COX-1 (Homo sapiens, UniProt P23219)
Test: Microsomal assay, COX-1
Type: biochemical

CCCCOc1nc(-c2ccc(S(C)(=O)=O)cc2)cc(C(F)(F)F)n1 [Example 1.10, 2-Butoxy-4-[4-(methylsulfonyl)phenyl]-6-(trifluoromethyl)pyrimidine]
IC50: > 30 µM
